From patent publication US10358446B2, “Bruton's tyrosine kinase inhibitors” (Zibo Biopolar Changsheng Pharmaceutical Co. Ltd., priority 2015, dated 2019)

Sequences of proteins named here, by UniProt entry; tags and fusion partners are left off.
UniProt P07948, whole entry: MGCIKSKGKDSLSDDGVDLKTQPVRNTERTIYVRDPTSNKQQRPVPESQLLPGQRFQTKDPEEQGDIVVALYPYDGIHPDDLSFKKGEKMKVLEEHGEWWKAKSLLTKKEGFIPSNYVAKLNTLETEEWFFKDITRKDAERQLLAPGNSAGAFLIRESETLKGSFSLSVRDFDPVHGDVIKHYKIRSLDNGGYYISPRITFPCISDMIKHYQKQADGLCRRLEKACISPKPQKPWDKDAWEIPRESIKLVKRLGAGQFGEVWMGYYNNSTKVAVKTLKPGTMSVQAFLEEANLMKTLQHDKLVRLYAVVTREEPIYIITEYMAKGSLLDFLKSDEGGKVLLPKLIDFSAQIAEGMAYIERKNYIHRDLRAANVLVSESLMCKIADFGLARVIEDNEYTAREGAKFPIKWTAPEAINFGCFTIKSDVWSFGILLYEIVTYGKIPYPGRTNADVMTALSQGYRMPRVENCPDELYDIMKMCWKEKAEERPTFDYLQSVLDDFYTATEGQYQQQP
UniProt P51451, whole entry: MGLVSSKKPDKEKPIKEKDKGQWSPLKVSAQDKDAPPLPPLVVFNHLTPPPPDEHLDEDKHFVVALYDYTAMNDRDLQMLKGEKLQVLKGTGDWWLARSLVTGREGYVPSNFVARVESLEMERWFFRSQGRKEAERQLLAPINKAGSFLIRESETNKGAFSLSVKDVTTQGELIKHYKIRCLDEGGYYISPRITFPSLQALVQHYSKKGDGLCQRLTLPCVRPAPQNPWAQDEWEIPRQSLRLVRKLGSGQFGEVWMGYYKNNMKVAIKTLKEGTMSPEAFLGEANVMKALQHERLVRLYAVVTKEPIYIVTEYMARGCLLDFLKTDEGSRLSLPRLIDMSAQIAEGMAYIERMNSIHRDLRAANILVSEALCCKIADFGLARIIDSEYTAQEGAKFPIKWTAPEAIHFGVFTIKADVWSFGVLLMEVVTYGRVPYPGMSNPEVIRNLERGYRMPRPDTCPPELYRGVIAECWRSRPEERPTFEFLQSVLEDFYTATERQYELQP

Key:
[1] = molecular target: LYN (Homo sapiens (Human), UniProt P07948); assay: LYN kinase assay (HTRF); conditions: read-out: LYN IC50; [ATP]=20 μM, LYN=0.12 nM
[2] = molecular target: BLK (Homo sapiens (Human), UniProt P51451); assay: BLK kinase assay (HTRF); conditions: read-out: BLK IC50; [ATP]=20 μM, BLK=0.6 nM

IC50 [1]: > 10000 nM | IC50 [2]: 100 to 1000 nM
Structure (SMILES): C=CC(=O)Nc1cccc(-n2c(=O)n(-c3ccc(Oc4ccccc4)cc3)c3cnccc32)c1
